Laboratory results taken from patent US20110117080A1 (SCHERING, published 2011).
Numbering of substitutions follows the chain as printed.

B1: 3C2.3D10 (antibody, V domains shown)
VH: EVKVVASGGILVQPGGSLKLSCIVSGFTFRSYIMSWVRQNPEKRLEWVAEINDGGSYTHYPDTVKGRFIVSRDNDNNILYLQMNSLKSEDTAMYYCVRHGSNGYDYFGMDYWGQGTSVTVSS
VL: DVLMTQTPLSLSVSLGDQASISCRSSQTIAHRNGITYLEWYLQKPGQSPKLLMYKVSNRFSGVPDRFSGSGSGTDFTLKISRVEAEDLGLYYCFQNSHLPPTFGGGTNLEIKR
notes: Rat monoclonal antibody with kappa light chain; also called Rat Anti-REG4_H antibody; REG4 antibody 3C2.3D10
B2: 12E1.3C11 (antibody, V domains shown)
VH: DVQLLESGPGLVRPSQSLSLTCSVTGNSITSYYWTWIRQFPGNKLEWMGYIGYDDSNEYNPSLKNRISITRDTSKNQFFLKLNSVTSEDTATYFCAREDYDWFAYWGQGTLVTVSA
VL: DIVLTQSPVILSVTPGDSVSLSCRASQSIGNNLHWYHQKSHESPRLLIKYVSQSISGIPSRFSGSGSETGFTLRLNSVETEDFGMFFCQQSNSWPFTFGSGTKLEIKR
notes: Rat monoclonal antibody with kappa light chain; also called Rat Anti-REG4_H antibody; REG4 antibody 12E1.3C11
B3: 13E1.1B11 (antibody, V domains shown)
VH: QIQLVQSGPELKKPGETVKISCKASGYTFTNYGMNWVKQAPGKGLKWMGWINTYTGEPTYAADFKGRFALSLETSASTAYLQINNLKNEDTATYLCARRNWDPYALDYWGQGTSVTVSS
VL: DIVMTQSPSSLTVTAGEKFTMSCKSSQSLVNSGNQKNFLTWYQQKPGQPPKLLIYWASTRESGVPDRFTGSGSGTDFTLTISSVQAEDLAVYYCQNDYSYPYTFGGGTKLEIKR
notes: Rat monoclonal antibody with kappa light chain; also called Rat Anti-REG4_H antibody; REG4 antibody 13E1.1B11
B4: 70A9.3C2 (antibody, V domains shown)
VH: EIQLQQSGPELVKPGASVKVSCKASGYAFTSYNMYWVKQSHGQSLEWIGRIDPHNGVTTYNQKFKGKPTLTVDRSSSTAFMHLNSLTSEDSAVYYCAREGYDYDVWGQGTTLTVSS
VL: DIKMTQSPSSMYASLGERVSITCKASQDINSFLSWFQQKPGKSPKTLIYRANGLVDGVPSRFSGSGSGQDYSLTISSLEYEDMGIYYCLQYDEFPYTFGGGTKLEIKR
notes: Rat monoclonal antibody with kappa light chain; also called Rat Anti-REG4_H antibody; REG4 antibody 70A9.3C2
B5: 9F3.3A4 (antibody, V domains shown)
VH: B1 VH with I23T, V24A, I33V, T63S, V70I, N77H, N102T
VL: B1 VL
notes: Rat monoclonal antibody with kappa light chain; also called Rat Anti-REG4_H antibody; REG4 antibody 9F3.3A4

target: T1, human REG4 (Regenerating islet-derived Gene Type IV) protein (human, UniProt Q9BYZ8 23-158); experiment: SPR, Biacore T100, REG4 amine-coupled to CM5 chip, antibody as analyte, bivalent analyte model; apparent Kd
T1 construct: Recombinant human REG4 made in house (Schering-Plough BioPharma REG4_H, lot 04ABY), amine-coupled to a CM5 chip; also called hREG4 protein; REG4_H, lot 04ABY
Method: (§1) The kinetic binding activity of Rat Anti-REG4_H antibodies against Schering-Plough BioPharma REG4_H, lot 04ABY, was measured by surface plasmon resonance using a Biacore T100 system (Biacore, GE Healthcare, Piscataway, N.J.). […] Schering-Plough BioPharma Rat Anti-REG4_H antibodies were injected over the immobilized REG4_H surface at varying concentrations, ranging from [0.091 nM to 600 nM], at a flow rate of 30 μL/min. Following each injection cycle, the CM5 chip surface was regenerated using a 10 mM Glycine pH 1.5 solution followed by an injection of 25 mM NaOH solution at a flow rate of 75 μL/min.
(§2) Background subtraction binding sensorgrams were used for analyzing the rate constants; association (kₐ), dissociation (kd), and the equilibrium dissociation constant KD. The resulting data sets were fitted with a Bivalent Analyte Model using the Biacore T100 evaluation software (version 1.1.1).

Kd [pM] | Binder
240 | B1
62 | B2
316000 | B3
601 | B4

target: T1, human REG4 (Regenerating islet-derived …); experiment: SPR, Biacore T100, REG4 amine-coupled to CM5 chip, antibody as analyte, bivalent analyte model
Method: as §1, §2

koff [s⁻¹] | kon [M⁻¹ s⁻¹] | Binder
1.8e-05 | 76000 | B1
– | 66000 | B5
2.1e-05 | 330000 | B2
0.00117 | 4000 | B3
0.00101 | 1.68e+06 | B4
